Measurements taken from US20100322882A1, “SOLUBILIZING AGENTS FOR ACTIVE OR FUNCTIONAL ORGANIC COMPOUNDS” (ISP INVESTMENTS INC., priority 2006, published 2010).

Assay: Solubility of solid organic sunscreens in solubilizers (25° C.)
Format: physicochemical

## C12-15 alkyl benzoate [reference compound]
Solute 4-Methylbenzylidene camphor (MBC)
  Solubility of MBC in the solvent: 28 wt. %
Solute Avobenzone (E-517)
  Solubility of E-517 (Avobenzone) in the solvent: 15 wt. %
Solute Oxybenzone (E-567)
  Solubility of E-567 (Oxybenzone) in the solvent: 17 wt. %
